# Results taken from article PMC7024175, “In Depth Analysis of Kinase Cross Screening Data to Identify CAMKK2 Inhibitory Scaffolds” (Molecules, 2020).
# Protein sequences, listed by entry. Tags and fused reporters are not part of them. Residues count along the entry.
# UniProt Q96RR4, 165-446 limits assumed: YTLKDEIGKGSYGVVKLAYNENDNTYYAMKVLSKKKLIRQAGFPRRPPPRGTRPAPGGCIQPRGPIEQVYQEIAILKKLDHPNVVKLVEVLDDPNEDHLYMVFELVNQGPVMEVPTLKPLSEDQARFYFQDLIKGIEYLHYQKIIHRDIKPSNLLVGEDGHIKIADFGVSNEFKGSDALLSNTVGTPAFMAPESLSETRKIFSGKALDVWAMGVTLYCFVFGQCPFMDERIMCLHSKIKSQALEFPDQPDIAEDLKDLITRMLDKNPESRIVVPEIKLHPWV
# Biological target: CAMKK2 (Homo sapiens, UniProt Q96RR4)
# Assay: CAMKK2 DSF assay (differential scanning fluorimetry)
# Conditions: read-out: CAMKK2 ΔTm
smiles,measurement,value
COc1cc(N2CCC(N3CCN(C)CC3)CC2)ccc1Nc1ncc(Cl)c(Nc2ccccc2P(C)(C)=O)n1 [AP26113],ΔTm at 12.5 µM,13.6 °C
